Laboratory results taken from US11339419B2, “Scavenger protein(s) for improved preservation of analyte detection sensor(s) and method(s) of use thereof” (Siemens Healthcare Diagnostics Inc., priority 2017, dated 2022).

Experiments:
[1] = test system: creatininase (BBI Solutions); assay: BBI Solutions Creatininase Enzyme Absorbance with BSA and Proclin 300; type: biochemical; conditions: day 14; with Proclin 300
From the text: (§1) Absorbance measurements of the creatininase enzyme(s) were taken via spectrophotometer for each aqueous solution (represented as columns 1-5 in Tables 5-8—column 6 is a blank), the absorbance being directly proportional to the enzyme activity being measured-which for Tables 5-8 is creatininase enzyme activity. Accordingly, the higher the absorbance measurement, the higher the enzyme activity of creatininase. […] In addition, the mean values, standard deviations, and coefficients of variation are all presented for the enzyme activity/absorbance of each aqueous solution. All measurements were taken at 37° C.

[2] = test system: creatininase (Toyobo); assay: Toyobo Creatininase Enzyme Absorbance with BSA and Proclin 300; type: biochemical; conditions: day 14; with Proclin 300; absorbance increases as BSA goes from 5 to 25 to 50 mg/mL
From the text: as §1

With bovine serum albumin [BSA] the “creatininase enzyme activity, effect of the presence of BSA” value [1] was “unaffected” and the creatininase enzyme activity [2] was “remains low”.
